Data from patent US8507510B2, “Sulfoximine-substituted pyrimidines as CDK- and/or VEGF inhibitors, their production and use as pharmaceutical agents” (Bayer Intellectual Property GmbH, priority 2003, dated 2013).

Experiments:
[1] = test system: MaTu-ADR; experiment: Proliferation assay, MaTu-ADR; format: cell-based, human; conditions: MaTu-ADR cells, 4 days, crystal violet
From the text: Cultivated human tumor cells (MCF7, […] human breast cancer cells, related to ATCC HTB22; NCI-H460, human non-small-cell lung cancer cells, ATCC HTB-177, HCT 116, human colon cancer cells, ATCC CCL-247; DU 145, hormone-independent human prostate cancer cells, ATCC HTB-81; MaTu-MDR, hormone-independent, multiple pharmaceutical agent-resistant human breast cancer cells, EPO-GmbH, Berlin) were flattened out at a density of about 5000 cells/measuring point, depending on the growth rate of the respective cells, in a 96-well multititer plate in 200 μl of the corresponding growth medium. […] The cell proliferation was determined by coloring the cells with crystal violet: the cells were fixed by adding 20 μl/measuring point of an 11% glutaric aldehyde solution for 15 minutes at room temperature. […] The extinction was determined by photometry at a wavelength of 595 nm The change of cell growth, in percent, was calculated by normalization of the measured values to the extinction values of the zero-point plate (=0%) and the extinction of the untreated (0 μm) cells (=100%).

[2] = molecular target: CDK2/CycE (Homo sapiens (Human), UniProt P24941); experiment: CDK2/CycE kinase assay; format: biochemical; conditions: histone IIIS substrate, 0.5 μm ATP

Row | IC50 [2] | Structure (SMILES) | IC50 [1]
1 |  | CCS(=N)(=O)c1ccc(Nc2ncc(Br)c(N[C@H](C)C(C)(C)O)n2)cc1 (mixture of isomers) [Example 1.54, (RS)—S-[4-({5-bromo-4-[(R)-(2-hydroxy-1,2-dimethylpropyl)amino]pyrimidin-2-yl}amino)phenyl]-S-ethyl sulfoximide] | 70 nM
2 | 4 nM | C[C@@H](Nc1nc(Nc2ccc(S(=N)(=O)CCO)cc2)ncc1Br)C(C)(C)O (single isomer, unassigned) [Example 1.15] | 
3 | 7 nM | Cc1cc(Nc2ncc(Br)c(N[C@H](C)C(C)(C)O)n2)ccc1S(C)(=N)=O (single isomer, unassigned) [Example 1.59] | 
